Drawing on article PMC140036 (BMC Pharmacology, 2003), this text covers Emax for one compound.

Sequences of proteins named here, by UniProt entry; tags and fusion partners are left off.
UniProt P42866, whole entry: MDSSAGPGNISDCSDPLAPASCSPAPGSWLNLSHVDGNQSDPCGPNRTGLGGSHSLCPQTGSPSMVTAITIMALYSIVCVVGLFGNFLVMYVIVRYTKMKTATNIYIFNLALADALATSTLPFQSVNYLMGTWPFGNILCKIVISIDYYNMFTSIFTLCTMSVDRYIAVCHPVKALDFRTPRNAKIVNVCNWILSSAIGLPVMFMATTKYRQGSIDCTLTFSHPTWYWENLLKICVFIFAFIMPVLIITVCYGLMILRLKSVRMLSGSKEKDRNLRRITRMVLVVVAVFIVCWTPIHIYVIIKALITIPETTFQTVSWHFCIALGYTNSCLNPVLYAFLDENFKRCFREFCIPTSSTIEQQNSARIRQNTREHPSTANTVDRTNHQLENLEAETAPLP

The test deals with mouse μ opioid receptor (Mus musculus, UniProt P42866). Description: cell-based. Conditions: HEK293, read-out: Max Inhibition.

As for `CN1CC[C@]23c4c5ccc(O)c4O[C@H]2C(=O)CC[C@H]3[C@H]1C5` [Hydromorphone], the Emax turned out to be 67 ± 4%.
